Source: patent US20260250289A1, “BICYCLIC HETEROCYCLES AND THEIR USE AS WRN INHIBITORS” (Novartis AG, priority 2022, published 2026)

Tested on: DLD1-WRN-KO cells
Assay: Proliferation assay DLD1-WRN-KO (CellTiterGlo, off-target effects)
Format: cell-based
Settings: 96 h, read-out: Proliferation Assay DLD1-WRN-KO GI50
Description: The WRN-knockdown insensitive colon carcinoma cell line DLD-1 (RRID: CVCL_0248) was obtained from the Korean Cell Line Bank (KCLB), and used to generate a derivative in which the endogenous WRN gene copies were knocked out by CRISPR-mediated editing using standard CRISPR methods. The resulting cell line, DLD1-WRN-KO, was used to assess potential off-target compound effects. […]
Three replicate plates were prepared for each compound treatment condition. In addition, one plate (termed “day 0”) was prepared to quantify the number of viable cells at the time of compound addition. […] 96 hours after compound addition, cellular ATP levels as a surrogate for cell viability was assessed following addition of 50 microliters CellTiterGlo (Promega Cat #G7573) reagent and luminescence quantification on a MPLEX multi-mode plate-reader (TECAN) following a 10 minute incubation at room temperature. The number of viable cells in the “day 0” plate were quantified identically on the day of compound addition.
For data analysis, the assay background signal that was determined in wells containing medium, but no cells, was subtracted from all other data points prior to further calculations. The extent of growth inhibition and potential cell kill was assessed by comparing the ATP levels (measured using CellTiterGlo, Promega) in compound-treated cells with those present at the time of compound addition. […]

- GI50: 6 µM
Structure (SMILES): CCc1c(N2CCN(C(=O)c3nccc4cc[nH]c34)CC2)c(=O)n2nc(C3=CCOCC3)nc2n1CC(=O)Nc1ccc(C(F)(F)F)cc1C [Example 41, 2-(6-(4-(1H-pyrrolo[2,3-c]pyridine-7-carbonyl)piperazin-1-yl)-2-(3,6-dihydro-2H-pyran-4-yl)-5-ethyl-7-oxo-[1,2,4]triazolo[1,5-a]pyrimidin-4(7H)-yl)-N-(2-methyl-4-(trifluoromethyl)phenyl)acetamide]
